The record followed here is US20040175720A1 (NEW YORK UNIVERSITY, published 2004).

The target of the test is T1, NIF-1 (NRC Interacting Factor-1), full-length human, untagged (human, UniProt Q9H4Z2 1-1342, ^35S-L-methionine label in the in vitro binding assay).
T1 construct: Made by in vitro transcription/translation in reticulocyte lysate for the GST pull-down, and expressed from pEX-NIF-1 in HeLa cells for the reporter assay; also called ^35S-labeled NIF-1; ^35S-NIF-1
T1 sequence: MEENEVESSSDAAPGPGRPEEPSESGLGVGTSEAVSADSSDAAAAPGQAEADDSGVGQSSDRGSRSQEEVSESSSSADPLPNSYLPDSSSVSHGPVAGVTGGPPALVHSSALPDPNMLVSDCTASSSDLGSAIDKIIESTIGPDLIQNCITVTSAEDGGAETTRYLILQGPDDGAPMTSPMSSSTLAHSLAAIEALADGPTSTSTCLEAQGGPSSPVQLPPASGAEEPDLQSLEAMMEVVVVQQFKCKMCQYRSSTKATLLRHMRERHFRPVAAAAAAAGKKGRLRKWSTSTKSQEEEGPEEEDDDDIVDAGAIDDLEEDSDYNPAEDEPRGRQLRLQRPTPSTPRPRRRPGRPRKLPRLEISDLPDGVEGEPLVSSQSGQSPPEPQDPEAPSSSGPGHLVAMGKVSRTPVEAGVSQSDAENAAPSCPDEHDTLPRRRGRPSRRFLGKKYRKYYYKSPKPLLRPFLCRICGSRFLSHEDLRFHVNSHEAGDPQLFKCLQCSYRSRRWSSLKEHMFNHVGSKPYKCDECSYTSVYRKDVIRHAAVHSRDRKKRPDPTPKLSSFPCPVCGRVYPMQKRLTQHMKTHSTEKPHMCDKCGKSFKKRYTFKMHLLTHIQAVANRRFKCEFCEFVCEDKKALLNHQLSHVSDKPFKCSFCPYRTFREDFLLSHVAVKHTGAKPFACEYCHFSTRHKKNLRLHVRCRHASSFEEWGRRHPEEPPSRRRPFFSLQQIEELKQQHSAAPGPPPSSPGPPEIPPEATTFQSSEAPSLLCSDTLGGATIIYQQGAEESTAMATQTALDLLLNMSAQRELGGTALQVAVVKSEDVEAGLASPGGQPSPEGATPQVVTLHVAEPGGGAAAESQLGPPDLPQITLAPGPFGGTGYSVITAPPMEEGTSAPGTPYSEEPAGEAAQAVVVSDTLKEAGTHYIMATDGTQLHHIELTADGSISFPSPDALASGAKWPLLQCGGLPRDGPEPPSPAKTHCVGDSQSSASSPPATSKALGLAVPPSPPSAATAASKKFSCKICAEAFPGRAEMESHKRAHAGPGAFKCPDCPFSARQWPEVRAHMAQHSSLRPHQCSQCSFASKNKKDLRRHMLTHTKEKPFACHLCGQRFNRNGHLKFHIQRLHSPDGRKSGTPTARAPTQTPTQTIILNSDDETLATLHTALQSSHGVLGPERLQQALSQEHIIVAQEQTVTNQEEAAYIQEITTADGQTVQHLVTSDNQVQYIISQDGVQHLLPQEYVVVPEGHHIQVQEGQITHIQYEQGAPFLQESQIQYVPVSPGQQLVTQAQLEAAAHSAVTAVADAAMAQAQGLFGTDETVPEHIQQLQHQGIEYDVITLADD
Put plainly: GST pull-down of in vitro translated ^35S-NIF-1, SDS gel and autoradiography. From the text:
GST-NRC.1a was expressed in SG1 1117 E. coli by induction with IPTG, purified, and immobilized to glutathione-agarose described previously (Hadzic et al., “A 10-Amino-Acid Sequence in the N-Terminal A/B Domain of Thyroid Hormone Receptor α is Essential for Transcriptional Activation and Interaction with the General Transcription Factor TFIIB,” Mol. Cell. Biol. 15:4507-4517 (1995), Hadzic et al., “A Novel Multifunctional Motif in the N-Terminal A/B Domain of T3Rα Modulates DNA-Binding and Receptor Dimerization,” J. Biol. Chem. 273:10270-10278 (1998), which are hereby incorporated by reference in their entirety). […] The samples were washed with the same incubation buffer and the bound ³⁵S-labeled protein analyzed by SDS-gel electrophoresis followed by autoradiography.
To document that this region of NRC binds to NIF-1 in vitro, this region of rat NRC was expressed as a GST-fusion in E. coli, and was purified with glutathione-agarose beads. ³⁵S-labeled NIF-1, synthesized by in vitro transcription/translation in reticulocyte lysates, and incubated with (˜200 ng) of purified GST or GST-NRC.1a at 4° C. for 30 min in binding buffer with mild shaking. The GST-glutathione-agarose beads were washed and the bound ³⁵S-labeled proteins analyzed by SDS-gel electrophoresis followed by autoradiography.

B1: GST (purified, on glutathione-agarose beads, control of the in vitro binding assay) (other, UniProt P08515 1-218, looked up)
chain: MSPILGYWKIKGLVQPTRLLLEYLEEKYEEHLYERDEGDKWRNKKFELGLEFPNLPYYIDGDVKLTQSMAIIRYIADKHNMLGGCPKERAEISMLEGAVLDIRYGVSRIAYSKDFETLKVDFLSKLPEMLKMFEDRLCHKTYLNGDHVTHPDFMLYDALDVVLYMDPMCLDAFPKLVCFKKRIEAIPQIDKYLKSSKYIAWPLQGWQATFGGGDHPPK
B1: the binding result is “no binding (tested: ~200 ng of purified GST)”.
